According to PubChem BioAssay AID2675 (National Center for Advancing Translational Sciences (NCATS), 2010):
The list shows a part of the results, in another mix than the full data. Results filed as inconclusive are left out. Activity calls are given as the source filed them. The call rests on the fitted dose curve; in most records, active means well fitted inhibition curve with a large enough effect in the signal ratio, with a control signal flat (not every such curve was filed as active); inconclusive means small, poorly fitted or top-dose-only effect, or effect the other way, or a change in a side signal; inactive means no such curve, though single readings can be large or run the other way; the % refers to the signal ratio.

The chains behind the UniProt entries cited, without tags or fusion partners. Where a name states a change or a piece, a line headed by the entry shows the natural chain unless it says otherwise.
UniProt Q9NR56: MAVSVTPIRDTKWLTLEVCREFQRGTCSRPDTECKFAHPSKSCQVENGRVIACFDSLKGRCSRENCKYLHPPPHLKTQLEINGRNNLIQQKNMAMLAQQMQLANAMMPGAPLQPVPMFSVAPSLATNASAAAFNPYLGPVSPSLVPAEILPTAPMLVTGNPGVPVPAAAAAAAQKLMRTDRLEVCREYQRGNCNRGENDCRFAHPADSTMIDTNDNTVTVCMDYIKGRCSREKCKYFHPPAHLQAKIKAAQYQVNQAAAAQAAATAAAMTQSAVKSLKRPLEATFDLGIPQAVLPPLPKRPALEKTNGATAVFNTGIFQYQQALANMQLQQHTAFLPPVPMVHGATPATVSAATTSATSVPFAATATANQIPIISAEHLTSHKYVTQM

Each compound was assayed against Muscleblind-like protein 1 (Homo sapiens) (UniProt Q9NR56) (assay: qHTS Assay for Inhibitors of MBNL1-poly(CUG) RNA binding). Conditions: TR-FRET MBNL1-His/biotin-(CUG)12 binding, 665/545 ratio; at 57.5 µM (top of the series) unless noted.
On the % scale 0 is the no-effect control and ±100 the full control effect.

Row | SMILES | activity change, negative = inhibition
1 | CCOC(=O)Nc1cccc([As](=O)(O)O)c1 | inactive: 7.53%
2 | O=[N+]([O-])c1ccc(Nc2ccc(Oc3ccc([N+](=O)[O-])cc3[N+](=O)[O-])cc2)c([N+](=O)[O-])c1 | inactive: 19.9%
3 | O=P(Nc1ccccn1)(c1cccc2ccccc12)c1cccc2ccccc12 | inactive: 10.8%
4 | Cc1cc(SC(NC=O)C(Cl)(Cl)Cl)ncn1 (stereo unspecified) | inactive: 1.81%
5 | CCOC(=O)Nc1ccc([As](=O)(O)O)c(O)c1 | inactive: -11.1%
6 | CCCCOc1ccc(C(=O)NCC2(N3CCCCC3)CCCCC2)cc1OC | inactive: -7.72%
7 | CCOC(=O)c1ccc(NC(=O)C(C)(CCl)SC)cc1 (stereo unspecified) | inactive: 8.45%
8 | COP1(=S)c2c(C)nn(CCC#N)c2N=C(c2ccc(F)cc2)N1C (stereo unspecified) | inactive: -0.447%
9 | O=C(COc1ccccc1)OC1CN2CCC1CC2 (stereo unspecified) | inactive: -7.34%
10 | COc1ccc(N/C(=N/P(=O)(N2CCOCC2)N2CCOCC2)N2CCOCC2)cc1 | inactive: -4.36%
11 | O=C(OC1CN2CCC1CC2)C12CC3CC(CC(C3)C1)C2 (stereo unspecified) | inactive: 12.6%
12 | Cc1cc(=O)[nH]c(N[N+](=O)[O-])n1 | inactive: -1.33%
13 | Cc1c2c(nc3ccccc13)SC(C(Cl)Cl)C2 (stereo unspecified) | inactive: -13.3%
14 | COc1ccc2nc(NP(=O)(c3ccccc3)c3ccccc3)sc2c1 | inactive: -5.34%
15 | COc1cc(I)ccc1[As](=O)(O)O | inactive: -4.23%
16 | CC(C)c1ccc(OP(=O)(Nc2ccccn2)Oc2ccccc2F)cc1 (stereo unspecified) | inactive: 0.687%
17 | ClCCSc1nnc(-c2cccnc2)o1 | inactive: -18.8%
18 | CC(C)NC(=O)NP(=O)(Oc1ccccc1)Oc1ccccc1 | inactive: -2.91%
19 | CCN(CC)C(=S)SC(NC=O)C(Cl)(Cl)Cl (stereo unspecified) | inactive: -5.16%
20 | O=[As](O)(c1ccc(O)cc1)c1ccccc1O | inactive: -4.28%
21 | C[As](=O)(O)c1cccc(C(=O)O)c1 | inactive: -9.96%
22 | Cc1ccc2nc3c(c(C)c2c1)CC(C(Cl)Cl)S3 (stereo unspecified) | inactive: 22.2%
23 | Cc1ccc(OP(=O)(Nc2ccc([N+](=O)[O-])cn2)Oc2ccc(C)cc2)cc1 | inactive: 8.06%
24 | CCOP1(=S)c2c(C)nn(CCC#N)c2N=C(c2ccc(F)cc2)N1C (stereo unspecified) | inactive: -6.64%
25 | CCOP1(=S)c2c(C)nn(CCC#N)c2N=C(c2ccccc2F)N1C (stereo unspecified) | inactive: 13.2%
26 | O=P(Nc1nccs1)(Oc1ccccc1)Oc1ccccc1 | inactive: -18%

Row | SMILES | activity change, negative = inhibition
27 | O=P(Nc1nccs1)(c1ccccc1)c1nc2ccccc2s1 (stereo unspecified) | inactive: 1.79%
28 | Nc1ccccc1[As](=O)(O)c1ccccc1 | inactive: 4.13%
29 | O=C(O)COc1ccc([As](=O)(O)O)cc1[N+](=O)[O-] | inactive: 4.02%
30 | CCCOP(=S)(Nc1nc(N)cc(=O)[nH]1)OCCC | inactive: -11.1%
31 | COc1cc(C2NCCC3(OCCO3)C2(C)C)cc(OC)c1OC (stereo unspecified) | inactive: -2.88%
32 | CCOP(=O)(Nc1cccc2ccccc12)OCC | inactive: -3.13% [at 11.5 µM]
33 | O=[As](O)(O)c1cccnc1 | inactive: 11.9%
34 | COc1cc(C(=O)NCC2(N3CCOCC3)CCCCC2)cc(Cl)c1OC(C)C | inactive: -3.27%
35 | CS(=O)(=O)c1ccc(Cl)c(NC(=O)COC(=O)C(O)(c2ccccc2)c2ccccc2)c1 | inactive: 0.799%
36 | Cc1cccc(OCC(=O)OC2CN3CCC2CC3)c1 (stereo unspecified) | inactive: 2.55%
37 | O=[As](O)(c1ccccc1Br)c1ccccc1Br | inactive: 1.44%
38 | CC(C)/C=N\N=C(\N)N[N+](=O)[O-] | inactive: -5.44%
39 | CCOP(=O)(Nc1ccc(C)cn1)OCC | inactive: -6.22%
40 | CCC1=CC2Cc3nc4ccc(Cl)cc4c(N)c3C(C1)C2 (stereo unspecified) | inactive: -0.198%
41 | CCOP(=O)(NC(=NC(C)c1ccccc1)NC(C)c1ccccc1)OCC (stereo unspecified) | inactive: -8.11%
42 | Clc1n[nH]nc1-c1nn[nH][15n]1 | inactive: 2.02%
43 | CC(C)(C)C(=O)NC(Sc1ncccn1)C(Cl)(Cl)Cl (stereo unspecified) | inactive: -11.5%
44 | O=P1(Nc2ncccn2)COc2ccccc2OC1 | inactive: -18.9%
45 | Cc1ccc(OCC(=O)OC2CN3CCC2CC3)cc1 (stereo unspecified) | inactive: -14.9%
46 | O=[As](O)(c1cccs1)c1cccs1 | inactive: 1.94%
47 | Nc1cccc([As](=O)(O)c2ccccc2)c1 | inactive: -6.34%
48 | Cc1nn(-c2ccccc2)c2c1P(=O)(N1CCOCC1)N(C)C(c1ccccc1)=N2 (stereo unspecified) | inactive: 6.67%
49 | CC1CCC(C(C)C)C(OP(=O)(Nc2ccccn2)c2ccccc2)C1 (stereo unspecified) | inactive: -4.22%
50 | Cc1ccc(C(=O)OC2CN3CCC2CC3)cc1 (stereo unspecified) | inactive: 3.94%
51 | CN(C)C1(CNC(=O)c2ccc(S(C)(=O)=O)cc2)CCCCC1 | inactive: -1.96%
